From BindingDB's records for doi:10.1021/acs.jmedchem.5b00671 (University of Clermont Auvergne, 2016)

Biological target: T1, Potassium channel subfamily K member 2 (Homo sapiens, UniProt O95069)
T1 sequence (O95069 whole entry): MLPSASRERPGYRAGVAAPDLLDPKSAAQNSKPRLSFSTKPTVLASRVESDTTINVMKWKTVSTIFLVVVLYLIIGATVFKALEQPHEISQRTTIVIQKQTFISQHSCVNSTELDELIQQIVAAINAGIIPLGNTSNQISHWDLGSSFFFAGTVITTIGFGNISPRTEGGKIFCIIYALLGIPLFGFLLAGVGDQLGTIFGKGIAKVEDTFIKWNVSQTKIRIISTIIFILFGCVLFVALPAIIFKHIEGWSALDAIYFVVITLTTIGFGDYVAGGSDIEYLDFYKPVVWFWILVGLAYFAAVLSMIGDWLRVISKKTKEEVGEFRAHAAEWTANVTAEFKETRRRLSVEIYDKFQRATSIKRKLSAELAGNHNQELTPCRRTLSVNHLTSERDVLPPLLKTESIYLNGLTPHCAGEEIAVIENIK
Assay: Inhibition of human TREK1 expressed in whole COS cells assessed as reduction in channel currents

IC50: 2000 nM
Compound: OCCN1CCN(CC/C=C2/c3ccccc3Sc3ccc(C(F)(F)F)cc32)CC1 [Fluphenthixol]
